This is a selection; strong and weak results do not stand in their true shares. Inconclusive results are not listed. The source made the active and inactive calls. Calls follow the shape of the dose curve; as a rule, active = well fitted inhibition curve with a large enough effect; inconclusive = small, poorly fitted or top-dose-only effect, or another doubt; inactive = no such curve, though single readings can be large or run the other way.
These molecules were tested against Glutaminase kidney isoform, mitochondrial (Homo sapiens) (UniProt O94925) (assay: qHTS for Inhibitors of Glutaminase (GLS)). Settings: GLS enzymatic activity, qHTS titration; at 45.5 µM (top of the series).
% is scaled to controls: 0 for no effect and ±100 for the full control effect.

The chains behind the UniProt entries cited, without tags or fusion partners.
UniProt O94925, whole entry: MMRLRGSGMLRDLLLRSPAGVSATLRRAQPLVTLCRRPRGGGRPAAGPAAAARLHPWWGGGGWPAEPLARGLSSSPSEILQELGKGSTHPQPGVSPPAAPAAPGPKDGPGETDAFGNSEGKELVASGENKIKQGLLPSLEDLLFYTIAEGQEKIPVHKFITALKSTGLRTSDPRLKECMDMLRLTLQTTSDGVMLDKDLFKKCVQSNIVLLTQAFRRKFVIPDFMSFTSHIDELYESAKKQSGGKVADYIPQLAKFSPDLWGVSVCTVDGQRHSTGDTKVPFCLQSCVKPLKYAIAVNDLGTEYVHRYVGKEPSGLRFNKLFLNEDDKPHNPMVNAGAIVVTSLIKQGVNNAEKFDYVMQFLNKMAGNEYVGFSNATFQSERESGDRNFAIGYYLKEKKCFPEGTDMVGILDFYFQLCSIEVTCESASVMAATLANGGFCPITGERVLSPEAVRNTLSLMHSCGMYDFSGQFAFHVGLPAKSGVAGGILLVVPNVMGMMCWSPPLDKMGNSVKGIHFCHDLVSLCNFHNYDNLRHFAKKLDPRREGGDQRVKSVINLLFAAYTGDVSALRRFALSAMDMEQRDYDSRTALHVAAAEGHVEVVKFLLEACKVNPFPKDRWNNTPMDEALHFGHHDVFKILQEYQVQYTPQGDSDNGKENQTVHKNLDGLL

Row | Structure (SMILES) | activity change, negative = inhibition
1 | CCCOc1cccc(C(=O)NCC2(N3CCOCC3)CCCCC2)c1 | inactive: 4.18%
2 | O=C(NCC1(N2CCCCC2)CCCCC1)c1cccc(C(F)(F)F)c1 | inactive: 14.5%
3 | COc1ccccc1C(=O)NCC1(N2CCOCC2)CCCCC1 | inactive: 2.72%
4 | O=C(NCC1(N2CCCCC2)CCCCC1)c1ccc(F)cc1 | inactive: -4.13%
5 | O=P1(N(CCCl)CCCl)SCCCS1 | inactive: 0.141%
6 | CCCCn1nnnc1C(c1cc2ccccc2o1)N1CCC(n2c(=O)[nH]c3ccccc32)CC1 (stereo not drawn) | inactive: 7.86%
7 | CCCCOc1ccc(C(=O)NCC2(N3CCOCC3)CCCCC2)cc1 | inactive: -5.02%
8 | COc1ccc(NC2CCN(CCc3ccccc3)CC2)c(OC)c1 | inactive: 34.4%
9 | CCOC(=O)N1CCC(Nc2ccc(F)cc2)CC1 | inactive: 0.498%
10 | CC(C)(C)n1nnnc1C(c1ccccc1)N1CCC(n2c(=O)[nH]c3ccccc32)CC1 (stereo not drawn) | inactive: 2.81%
11 | O=C(NCC1(N2CCOCC2)CCCCC1)c1ccc(Cl)cc1 | inactive: 4.03%
12 | O=C1CCN(Cc2ccccc2)CC1 | inactive: 2.86%
13 | CCOc1ccc(C)cc1CN(CCCl)CCCl | inactive: -11.1%
14 | COc1cc(C(=O)NCC2(N(C)C)CCCCC2)ccc1OC(F)F | inactive: 22.9%
15 | CCOC(=O)N1CCC(Nc2cccc(C)c2)CC1 | inactive: 15.7%
16 | O=c1[nH]c2ccccc2n1C1CCN(C(c2cccc3ccccc23)c2nnnn2C2CCCC2)CC1 (stereo not drawn) | inactive: -0.228%
17 | O=c1[nH]c2ccccc2n1C1CCN(C(c2ccccc2)c2nnnn2C2CCCCC2)CC1 (stereo not drawn) | inactive: 1.03%
18 | CSc1ccccc1C(=O)NCC1(N2CCCCC2)CCCCC1 | inactive: -1%
19 | Cc1cccc(NC2(C#N)CCN(Cc3ccccc3)CC2)c1 | inactive: -8%

Row | Structure (SMILES) | activity change, negative = inhibition
20 | COc1ccc(C(=O)NCC2(N3CCCCC3)CCCCC2)cc1 | inactive: -17.6%
21 | CCC(c1nnnn1C1CCCC1)N1CCC(n2c(=O)[nH]c3ccccc32)CC1 (stereo not drawn) | inactive: 0.505%
22 | COc1ccc(C(=O)NCC2(N3CCCCC3)CCCCC2)c(OC)c1OC | inactive: 16.6%
23 | CC(C)(C)OC(=O)N1CCC(N(C(=O)c2ccccc2)c2ccc(F)cc2)CC1 | inactive: -8.31%
24 | O=C(NCC1(N2CCCCC2)CCCCC1)c1ccc(=O)[nH]c1 | inactive: 16.6%
25 | CCCCn1nnnc1C(c1cccs1)N1CCC(n2c(=O)[nH]c3ccccc32)CC1 (stereo not drawn) | inactive: 9.17%
26 | CCCCn1nnnc1C(CC)N1CCC(n2c(=O)[nH]c3ccccc32)CC1 (stereo not drawn) | inactive: -7.4%
27 | O=C(NCC1(N2CCCCC2)CCCCC1)c1cccs1 | inactive: -5.43%
28 | O=C(OC1CN2CCC1CC2)C1c2ccccc2Oc2ccccc21 (stereo not drawn) | inactive: 11.3%
29 | O=c1[nH]c2ccccc2n1C1CCN(C(c2cc3ccccc3o2)c2nnnn2C2CCCCC2)CC1 (stereo not drawn) | inactive: -9.65%
30 | N#CC1(Nc2ccccc2)CCN(Cc2ccccc2)CC1 | inactive: 8.04%
31 | O=C(NCC1(N2CCCCC2)CCCCC1)c1ccc(Cl)s1 | inactive: 14.9%
32 | COc1ccc(Cl)cc1C(=O)NCC1(N2CCOCC2)CCCCC1 | inactive: 17.2%
33 | CCOC(=O)N1CCC(Nc2ccc(OC)cc2)CC1 | inactive: 20%
34 | CCCCn1nnnc1C(c1ccc(OC)cc1)N1CCC(n2c(=O)[nH]c3ccccc32)CC1 (stereo not drawn) | inactive: 8.63%
35 | O=c1[nH]c2ccccc2n1C1CCN(C(c2ccccc2OC(F)(F)F)c2nnnn2C2CCCCC2)CC1 (stereo not drawn) | inactive: 2.81%
36 | O=C(NCC1(N2CCCCC2)CCCCC1)c1ccc(Cl)nc1 | inactive: -0.365%
37 | Cc1cc(C)cc(N(C(=O)c2ccccc2)C2CCN(C(=O)OC(C)(C)C)CC2)c1 | inactive: 0.318%
38 | O=C(NCC1(N2CCOCC2)CCCCC1)c1cc2ccccc2o1 | inactive: 17.7%
